# Yeast mating assay 2: variants of the scFv Ab-95

Data: MIT Lincoln Laboratory AlphaSeq set, Engelhart et al. 2022, doi:10.1038/s41597-022-01779-4, as distributed in FLAb.

All variants were tested on one target, the spike HR2 peptide PDVDLGDISGINAS (SARS-CoV-2).

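The starting antibody came from a phage panning campaign against this peptide. Variants in AAYL52 differ from the parent at up to three CDR positions; double and triple changes were sampled at random. AlphaSeq pools MATa yeast showing the antibodies with MATalpha yeast showing the peptide. Pairs that bind mate more often; barcode pairs of the diploids are counted by sequencing. A regression on co-assayed BCL2-family reference pairs converts the normalised counts of each replicate to an apparent Kd. There are three technical replicates.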

Ab-95 is the parent antibody, in scFv form: VH, then a (GGGGS)3 linker, then VL. The heavy chain is unchanged in all variants.
VH: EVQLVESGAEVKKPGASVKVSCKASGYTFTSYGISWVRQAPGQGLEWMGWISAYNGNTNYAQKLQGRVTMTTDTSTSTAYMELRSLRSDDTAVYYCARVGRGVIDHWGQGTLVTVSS
VL: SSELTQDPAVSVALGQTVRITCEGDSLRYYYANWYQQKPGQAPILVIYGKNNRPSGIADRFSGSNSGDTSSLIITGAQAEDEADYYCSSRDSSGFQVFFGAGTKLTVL

Changes read parent residue, position, new residue, counted from the first residue of the VL shown. Numbers give log10(Kd / nM), so 0 is 1 nM and 3 is 1 µM. Smaller is tighter. A pair that was not seen in that replicate is written "n.d."; this usually means weak binding, but a binder can also be missed. Empty control strains, which show no peptide, gave a signal in 28% of pairings with library AAYL52; the median was 3.91 and 95% of these signals were weaker than 2.90. No background was subtracted. Also given: how often the same scFv was detected with the empty control strains, with their mean in brackets. Parent in this assay: reference entry 2.31, copy in this library 2.25.

changes | log10 Kd, replicates | signal with controls
S26C/Y29S/G94C | 3.77 / 3.22 / 3.01 | 7 of 9 (4.38)
R53M/G94W/Q96G | 3.68 / 3.71 / 3.84 | 6 of 9 (3.78)
D25M/Y30C/F98K | 4.10 / 3.23 / 4.13 | 1 of 9 (4.13)
G24W/A32P | 2.03 / 2.77 / 2.80 | 1 of 9 (4.30)
G24M/G94V/F95K | 2.19 / 1.83 / 1.55 | 2 of 9 (3.64)
N52T/P54R/S89V | 3.43 / 3.32 / 3.74 | 2 of 9 (3.36)
S26T/S89L/V97T | 6.16 / n.d. / n.d. | 2 of 9 (3.95)
Y31Q/S88C/V97P | n.d. / n.d. / n.d. | 2 of 9 (3.44)
Y30V/G49Q/P54I | n.d. / n.d. / n.d. | 0 of 9
N51K/R53H/S89A | 5.20 / n.d. / 2.92 | 2 of 9 (4.25)
D25W/R28H/S89H | 2.92 / n.d. / n.d. | 2 of 9 (4.32)
R28C/K50W/S92E | 4.64 / 4.66 / 3.41 | 2 of 9 (3.24)
L27Q/Y29F/S88L | 4.37 / n.d. / n.d. | 1 of 9 (3.80)
R28W/N33E/F98S | 4.30 / 5.72 / 4.56 | 3 of 9 (4.03)
P54W/V97A | 3.09 / 3.30 / 2.97 | 3 of 9 (4.36)
R28K/K50D/V97T | 2.82 / 1.93 / 1.96 | 3 of 9 (3.36)
Y30L/S88G/R90M | n.d. / 4.57 / n.d. | 3 of 9 (3.37)
L27G/S92L/G94K | n.d. / 4.53 / n.d. | 5 of 9 (4.31)
N33W/G49I/R53W | n.d. / n.d. / n.d. | 2 of 9 (4.14)
G24L/P54A/S92C | n.d. / n.d. / 3.39 | 1 of 9 (3.50)
R90T/F95I/F98H | 2.20 / 2.50 / 2.44 | 5 of 9 (4.20)
Y31A/A32E/P54D | n.d. / n.d. / n.d. | 2 of 9 (3.75)
R28Q/S89A | 1.74 / 1.76 / 1.37 | 1 of 9 (4.68)
S26I/G94M/F95D | n.d. / 5.27 / 3.71 | 4 of 9 (4.14)
K50Y/P54E/F95C | 4.81 / n.d. / n.d. | 1 of 9 (3.84)
Y29A/S89P | n.d. / 4.13 / n.d. | 4 of 9 (4.67)
P54F | n.d. / 2.97 / 2.66 | 1 of 9 (4.05)
G24F/S92F/V97Y | n.d. / n.d. / n.d. | 0 of 9
D91E/S93H/V97L | 1.91 / 2.27 / 1.34 | 0 of 9
D25C/S88W/S92M | n.d. / n.d. / n.d. | 1 of 9 (3.76)
G24L/R90S/Q96P | n.d. / 3.26 / n.d. | 4 of 9 (3.51)
S26M/R28E/Y29V | 1.52 / 1.22 / 1.09 | 4 of 9 (3.40)
S55T/S92P | 2.26 / 2.37 / 2.39 | 2 of 9 (3.78)
Y31M/S55N/D91A | 2.87 / 2.74 / 2.45 | 1 of 9 (4.21)
E23P/A32T/S93I | n.d. / n.d. / n.d. | 3 of 9 (3.70)
S88W/F95I | n.d. / 2.87 / n.d. | 0 of 9
R28D/Y29T/F95C | 2.99 / 2.86 / 3.81 | 2 of 9 (4.87)
D25A/Y31P/G49Y | 4.19 / 3.73 / n.d. | 4 of 9 (4.29)
G24R/S55G/V97S | 4.96 / 3.77 / n.d. | 3 of 9 (3.51)
L27K | n.d. / n.d. / n.d. | 1 of 9 (4.29)
G49D | 2.66 / 3.24 / 3.20 | 5 of 9 (4.36)
Y29Q/K50R/S88W | 2.57 / 2.41 / 2.49 | 4 of 9 (3.81)
S89D/R90C/V97S | n.d. / n.d. / n.d. | 0 of 9
N33M/N52T/D91G | 4.80 / 5.56 / n.d. | 4 of 9 (4.34)
S26T/S55H/G94K | 3.06 / 2.96 / n.d. | 1 of 9 (2.82)
L27V/R53N | 3.82 / n.d. / n.d. | 3 of 9 (3.20)
R28D/Y30H/N52P | n.d. / 3.49 / n.d. | 2 of 9 (4.03)
E23Q/D25S/S88I | 3.55 / n.d. / n.d. | 3 of 9 (4.46)
L27D/A32C/P54R | n.d. / n.d. / 3.44 | 1 of 9 (4.17)

A selection of 7 entries from above:

{"changes": "L27V/R53N", "log10 Kd, replicates": "3.82 / n.d. / n.d.", "signal with controls": "3 of 9 (3.20)"}
{"changes": "D25A/Y31P/G49Y", "log10 Kd, replicates": "4.19 / 3.73 / n.d.", "signal with controls": "4 of 9 (4.29)"}
{"changes": "G24M/G94V/F95K", "log10 Kd, replicates": "2.19 / 1.83 / 1.55", "signal with controls": "2 of 9 (3.64)"}
{"changes": "N51K/R53H/S89A", "log10 Kd, replicates": "5.20 / n.d. / 2.92", "signal with controls": "2 of 9 (4.25)"}
{"changes": "E23Q/D25S/S88I", "log10 Kd, replicates": "3.55 / n.d. / n.d.", "signal with controls": "3 of 9 (4.46)"}
{"changes": "N33W/G49I/R53W", "log10 Kd, replicates": "n.d. / n.d. / n.d.", "signal with controls": "2 of 9 (4.14)"}
{"changes": "R28K/K50D/V97T", "log10 Kd, replicates": "2.82 / 1.93 / 1.96", "signal with controls": "3 of 9 (3.36)"}